How the values were obtained:
Details in all cases: both partners purified
[1] = target: T1, Chp1CD wild type, SUMO tag removed, fluorescently labelled (for MST) (fission yeast (S. pombe), UniProt Q10103 15-75, fluorescent label, amine reactive (Monolith Protein Labeling Kit BLUE-NHS), 1:1 fluorescence:protein ratio); assay: MST; 300 ng fluorescent Chp1CD (SUMO removed) in 20 μl, H3K9me3 peptide titrated; 10 mM Tris-HCl pH 7.5, 150 mM NaCl, 0.5 mM DTT, 0.05% Tween-20; five-parameter logistic fit
T1 construct: Chp1 chromodomain (Chp1CD), fission yeast; also called wild-type Chp1CD; fluorescent Chp1CD; source: E. coli BL21 (DE3)(pLys), purified (Ni-NTA); SUMO tag removed with Ulp1 protease; not shown: His6, N-terminal, cleaved; SUMO, N-terminal, cleaved
T1 sequence: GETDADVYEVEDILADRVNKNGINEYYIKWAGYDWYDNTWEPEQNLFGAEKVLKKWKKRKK

[2] = target: T2, Chp1CD LOOP1B/2B, SUMO tag removed, fluorescently labelled (for MST) (fission yeast (S. pombe), UniProt Q10103 15-75, N33A | N35A | W49A | Y50A | D51A, fluorescent label, amine reactive (Monolith Protein Labeling Kit BLUE-NHS), 1:1 fluorescence:protein ratio); assay: as above
T2 construct: Chp1 chromodomain (Chp1CD), fission yeast; carries the mutations of LOOP1B and of LOOP2B; also called LOOP1B/2B Chp1CD mutant; source: E. coli BL21 (DE3)(pLys), purified (Ni-NTA); SUMO tag removed with Ulp1 protease; not shown: His6, N-terminal, cleaved; SUMO, N-terminal, cleaved
T2 sequence: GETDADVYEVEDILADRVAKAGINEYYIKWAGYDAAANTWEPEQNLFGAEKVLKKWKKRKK

[3] = target: T3, His6-SUMO-Chp1CD LOOP2A (N52A) (fission yeast (S. pombe), UniProt Q10103 15-75, N52A); assay: pull-down; biotinylated H3K9me3 peptide (1 μg) on streptavidin agarose resin, about 5 μg Chp1CD in 20 μl, 1 h on ice; 20 mM HEPES pH 7.5, 75 mM KCl, 0.5 mM DTT; SDS-PAGE, quantified with ImageJ, normalized to wt
T3 construct: Chp1 chromodomain (Chp1CD), fission yeast; source: E. coli BL21 (DE3)(pLys), purified (Ni-NTA)
T3 sequence: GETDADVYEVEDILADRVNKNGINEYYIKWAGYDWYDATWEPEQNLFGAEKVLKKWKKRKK

[4] = target: T4, His6-SUMO-Chp1CD LOOP1B (N33A, N35A) (fission yeast (S. pombe), UniProt Q10103 15-75, N33A | N35A); assay: as above
T4 construct: Chp1 chromodomain (Chp1CD), fission yeast; source: E. coli BL21 (DE3)(pLys), purified (Ni-NTA)
T4 sequence: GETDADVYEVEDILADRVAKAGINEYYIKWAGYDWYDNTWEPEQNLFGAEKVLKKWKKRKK

[5] = target: T5, His6-SUMO-Chp1CD LOOP2B (W49A, Y50A, D51A) (fission yeast (S. pombe), UniProt Q10103 15-75, W49A | Y50A | D51A); assay: as above
T5 construct: Chp1 chromodomain (Chp1CD), fission yeast; source: E. coli BL21 (DE3)(pLys), purified (Ni-NTA)
T5 sequence: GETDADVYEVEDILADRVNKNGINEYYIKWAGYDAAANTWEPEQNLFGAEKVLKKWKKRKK

[6] = target: T6, His6-SUMO-Chp1CD LOOP1A (R31S, N33A, N35A) (fission yeast (S. pombe), UniProt Q10103 15-75, R31S | N33A | N35A); assay: as above
T6 construct: Chp1 chromodomain (Chp1CD), fission yeast; also called LOOP1A construct; source: E. coli BL21 (DE3)(pLys), purified (Ni-NTA)
T6 sequence: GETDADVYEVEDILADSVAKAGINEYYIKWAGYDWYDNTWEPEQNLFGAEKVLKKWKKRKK

[7] = target: T7, His6-SUMO-Chp1CD (chromodomain of Chp1, wild type) (fission yeast (S. pombe), UniProt Q10103 15-75); assay: as above
T7 construct: Chp1 chromodomain (Chp1CD), fission yeast; several residues at the C-terminus of the α-helix that are missing in the crystal structure are present in this protein; Thrombin cleavage site between the His6 and SUMO tags; also called wild-type Chp1CD; Chp1 chromodomain; source: E. coli BL21 (DE3)(pLys), purified (Ni-NTA, gel filtration Superdex 75); not shown: His6, N-terminal, kept; SUMO, …
T7 sequence: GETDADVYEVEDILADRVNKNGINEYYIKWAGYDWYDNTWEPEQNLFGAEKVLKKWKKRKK

binding result [1]: binds
binding result [2]: binds
binding result [3]: binds
binding result [4]: binds
binding result [5]: binds
binding result [6]: binds
binding result [7]: binds
B1: [Lys(Me3)9]-Histone H3 ([…])-GGK(Biotin) peptide (peptide)
peptide: not shown
modifications: trimethyl-lysine at 9; biotin on the C-terminal lysine of GGK
notes: C-terminal linker with the biotinylated lysine; also called H3K9me3 peptide; H3K9me peptide; source: bought: Eurogentec (synthetic peptide)
